Source: patent US20200148682A1, “AKT ISOZYME-SPECIFIC COVALENT INHIBITORS DERIVED FROM REDOX-SIGNALING LIPIDS” (Cornell University, priority 2017, published 2020)

The chains behind the UniProt entries cited, without tags or fusion partners. Where a name states a change or a piece, a line headed by the entry shows the natural chain unless it says otherwise.
UniProt Q9Y243: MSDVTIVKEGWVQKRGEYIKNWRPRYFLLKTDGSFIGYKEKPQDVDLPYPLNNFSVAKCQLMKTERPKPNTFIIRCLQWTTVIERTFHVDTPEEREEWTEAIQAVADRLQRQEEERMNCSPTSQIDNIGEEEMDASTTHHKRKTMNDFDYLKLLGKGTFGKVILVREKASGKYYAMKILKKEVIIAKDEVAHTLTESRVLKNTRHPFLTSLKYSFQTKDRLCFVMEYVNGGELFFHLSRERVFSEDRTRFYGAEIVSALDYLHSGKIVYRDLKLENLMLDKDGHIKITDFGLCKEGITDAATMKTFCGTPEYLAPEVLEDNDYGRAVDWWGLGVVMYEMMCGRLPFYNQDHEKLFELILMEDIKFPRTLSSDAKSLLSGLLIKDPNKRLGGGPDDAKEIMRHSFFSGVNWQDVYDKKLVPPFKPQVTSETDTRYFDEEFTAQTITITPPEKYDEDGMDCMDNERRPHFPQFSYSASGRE

How the values were obtained:
Format in all cases: cell-based
[1] = system: MDA-MB-468; assay: Cell viability assay (AlamarBlue); settings: MDA-MB-468, 72 hours
Procedure: (§1) FIGS. 22A and 22D are graphs showing results of cytotoxicity assays for MDA-MB-468 (FIG. 22A) and BT-549 (FIG. 22D). […] Stated cell lines were plated in 96-well plates (3000 cells per well) in the presence of the stated concentration of inhibitor. After 72 hours, the number of viable cells was analyzed by AlamarBlue®. Proliferation inhibition 50% (PI50) values were calculated by fitting data to “PI50 equation” (EQN 4) (FIG. 22C). MDA cells were transfected with the stated siRNA using lipofectamine 3000 for 12 hours. […] After 72 hours, the number of viable cells was calculated using AlamarBlue®. FIG. 22F is a schematic showing AlamarBlue® viability assay. […] MDA-MB-468 cells were treated with the stated drugs for 72 hours at the PI60 and PI80. […] After 30 min at room temperature, cells were analyzed by flow cytometry.
(§2) Indicated cells were plated in a 96-well plate containing the DMEM complete medium (see Example 11 for complete medium formulation, 100 μL per well) with a density of 3,000-5,000 cells per well for 12 hours followed by the addition of varying concentrations of inhibitors in rinse medium (100 μL). […] The fluorescence emission signals at 590 nm were read by Cytation 3 cell imaging multi-mode reader (BioTeK) using an excitation wavelength of 560 nm. […]

[2] = system: BT-549; assay: Cell viability assay (AlamarBlue); settings: BT-549, 72 hours
Procedure: as §1, §2

[3] = system: Akt1, Akt2, Akt3 isoforms; assay: Akt isoform selectivity of covalent inhibition (in-gel fluorescence, transfected HEK293T cells)
Source text: Overexpressed Akt proteins were labeled with Cy5-small-molecule-fluorophore-conjugated azide (Cy5-azide) using standard click chemistry. FIG. 16A top gel is an image showing Cy5 channel (used to evaluate the extent of covalent binding on each Akt protein). The lysate from non-transfected HEK 293T cells was also used for comparison. M, molecular weight ladder. […] FIG. 16B top gel is an image showing Cy5 channel. M is a molecular weight ladder. FIG. 16B bottom is an image showing western blots probing Halo and actin, respectively. […] Error bars designate s.d. […] Normalized fluorescent signal (NFS) was calculated from the following equation: NFS=[(Cy5(X μM drug)−Cy5(No transfection))/Halo(X μM drug)]÷[(Cy5(no drug)−Cy5(No transfection))/Halo(no drug)]. The relative fluorescent signal (RFS) is calculated from the following equation: RFS=(Cy5(X μM drug)/Halo(X μM drug)) (Cy5(no drug)/Halo(no drug))
Cell transfection with the designated plasmid encoding a given HaloTag-Akt fusion gene was carried out following the general procedure described in Example 12. After 20-24 hours, the transfection media were aspirated and replaced with fresh 2 mL rinse MEM medium supplemented with 3% FBS containing the indicated concentration of inhibitor or the equivalent final volume of DMSO and the plates were incubated for the indicated period of time. […]

[4] = target: T1, Halo-Akt3 (Homo sapiens, UniProt Q9Y243); assay: AKTAR FRET assay in live HEK293T cells; settings: 48 hours drug, then 24 hours withdrawal
T1 construct: expressed in transfected cells; host or cells: HEK293T
Procedure: FIGS. 21C-21D: HEK293T cells were transfected with plasmids encoding AKTAR and Halo-Akt3 (1:1). After 12 hours, cells were treated with MK-2206 (5 μM) or MK-HNE (5 μM). After 24 hours and 48 hours Akt3 activity was measured using ratiometric FRET analysis in live cells. After 48 hours, cells were washed two times with drug-free media containing 10% FBS and allowed to recover in 3% FBS MEM media for another 24 hours, after which time Akt3 activity was assayed using FRET again. wd=withdrawal for 24 hours. […] FIG. 21D is a graph showing quantitation of all data sets for treatment of HEK293T cells expressing Halo-Akt3/AKTAR. […] FIG. 21F is a graph showing quantitation of all data sets for treatment of HEK293T cells expressing Halo-Akt2/AKTAR. […] FIG. 21H is a graph showing quantitation of all data sets for treatment of HEK293T cells expressing Halo-Akt3C119S mutant/AKTAR.
HEK293T cells were plated in imaging plates at 60% confluence. […] The signals in the cyan channel (463-498 nm) and the yellow channel (525-620 nm) were recorded. […] For quantification, the mean CFP and YFP signal intensity was measured using Image by drawing a freehand circle around the cells, and the ratio image was calculated. […]
One of the key benefits of covalent inhibition is the ability to uncouple pharmacokinetics from pharmacodynamics. […] Thus the ratio of green to blue emission is a direct readout of Akt activity in live cells.

## C#CCCCC(O)/C=C/C(=O)NC1(c2ccc(-c3nc4ccn5c(=O)[nH]nc5c4cc3-c3ccccc3)cc2)CCC1.Cl (stereo not shown) [MK-HNE, (E)-8-(4-(1-(4-Hydroxynon-2-en-8-ynamido)cyclobutyl)phenyl)-3-oxo-9-phenyl-2,3-dihydro-[1,2,4]triazolo[3,4-f][1,6]naphthyridin-7-ium Chloride]
[1]
  toxicity / potency relative to MK-2206: less effective than MK-2206
[2]
  toxicity / potency relative to MK-2206: less effective than MK-2206
[3]
  Akt isozyme selectivity of inhibition: Akt3≈Akt2>>Akt1
[4]
  Akt3 activity (green/blue FRET ratio) after drug withdrawal: significant Akt3 inhibition was retained
